Test results taken from PubChem BioAssay AID652039 (The Scripps Research Institute Molecular Screening Center, 2013).
The list shows a part of the results, in another mix than the full data. The source made the active and inactive calls.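 The calls were made as follows: active = activation above the mean of all tested compounds plus 3 SD, computed per campaign excluding outliers beyond control limits (cut at about 13% in these data); inactive = the rest.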

Chains of the proteins cited; added tags and fusions are not shown.
UniProt P49862, whole entry: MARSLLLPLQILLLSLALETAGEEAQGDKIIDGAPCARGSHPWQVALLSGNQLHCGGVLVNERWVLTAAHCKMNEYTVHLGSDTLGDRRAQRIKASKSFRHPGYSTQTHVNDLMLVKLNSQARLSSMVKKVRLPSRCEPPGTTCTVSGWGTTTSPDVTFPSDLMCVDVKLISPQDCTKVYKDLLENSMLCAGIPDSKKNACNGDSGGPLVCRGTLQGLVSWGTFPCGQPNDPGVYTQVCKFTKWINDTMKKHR

Molecular target: Kallikrein-7 (Homo sapiens) (UniProt P49862)
Experiment: proKLK7 zymogen activators, primary screen, biochemical, fluorescence intensity (AID 652039)
Details: purified proKLK7, EDANS-DABCYL substrate fluorescence; at 7 µM; stronger effect = higher value; 100% is mature enzyme control, 0% vehicle

| SMILES | activation |
| --- | --- |
| ClCCSc1nnc(-c2cccnc2)o1 | inactive: -0.12% |
